Data from doi:10.1101/2025.09.30.679465v1.

Amino acid sequences for entries named in this document (tags omitted). A change or cut given only in a name is not applied to a line headed by its entry.
UniProt Q5JUK3, whole entry Y796H: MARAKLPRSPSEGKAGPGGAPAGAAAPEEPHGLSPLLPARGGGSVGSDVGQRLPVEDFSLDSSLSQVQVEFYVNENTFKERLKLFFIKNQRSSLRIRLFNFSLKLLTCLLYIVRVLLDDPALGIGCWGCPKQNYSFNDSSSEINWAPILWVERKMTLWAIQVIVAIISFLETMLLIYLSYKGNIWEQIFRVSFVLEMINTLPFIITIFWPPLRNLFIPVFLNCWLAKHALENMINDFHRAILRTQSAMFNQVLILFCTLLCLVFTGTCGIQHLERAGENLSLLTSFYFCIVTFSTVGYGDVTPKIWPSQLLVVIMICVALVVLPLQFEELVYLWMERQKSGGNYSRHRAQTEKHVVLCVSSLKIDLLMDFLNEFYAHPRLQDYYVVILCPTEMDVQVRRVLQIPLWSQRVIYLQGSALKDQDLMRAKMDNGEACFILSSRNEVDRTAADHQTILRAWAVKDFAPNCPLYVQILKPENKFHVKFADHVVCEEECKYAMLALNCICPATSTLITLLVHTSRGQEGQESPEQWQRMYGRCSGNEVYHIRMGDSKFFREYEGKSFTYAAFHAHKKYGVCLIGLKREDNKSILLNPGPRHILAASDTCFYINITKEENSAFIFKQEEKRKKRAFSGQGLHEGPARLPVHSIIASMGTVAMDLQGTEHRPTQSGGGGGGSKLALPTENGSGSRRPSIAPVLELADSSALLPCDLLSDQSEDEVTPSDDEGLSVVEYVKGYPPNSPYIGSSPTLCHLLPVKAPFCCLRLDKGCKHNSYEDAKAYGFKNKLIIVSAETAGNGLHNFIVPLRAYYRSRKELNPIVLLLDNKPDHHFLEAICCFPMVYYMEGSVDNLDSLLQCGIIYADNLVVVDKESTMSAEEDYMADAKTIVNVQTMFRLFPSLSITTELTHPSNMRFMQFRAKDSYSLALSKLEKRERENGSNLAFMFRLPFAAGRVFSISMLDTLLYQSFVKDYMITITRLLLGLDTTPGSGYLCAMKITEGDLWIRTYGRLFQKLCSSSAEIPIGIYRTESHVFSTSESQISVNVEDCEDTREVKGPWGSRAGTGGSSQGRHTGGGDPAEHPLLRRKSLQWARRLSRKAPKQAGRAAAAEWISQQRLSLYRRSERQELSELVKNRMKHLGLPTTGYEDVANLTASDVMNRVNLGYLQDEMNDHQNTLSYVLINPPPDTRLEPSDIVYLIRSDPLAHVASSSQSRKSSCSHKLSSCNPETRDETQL
UniProt Q5JUK3, whole entry, stated change not applied: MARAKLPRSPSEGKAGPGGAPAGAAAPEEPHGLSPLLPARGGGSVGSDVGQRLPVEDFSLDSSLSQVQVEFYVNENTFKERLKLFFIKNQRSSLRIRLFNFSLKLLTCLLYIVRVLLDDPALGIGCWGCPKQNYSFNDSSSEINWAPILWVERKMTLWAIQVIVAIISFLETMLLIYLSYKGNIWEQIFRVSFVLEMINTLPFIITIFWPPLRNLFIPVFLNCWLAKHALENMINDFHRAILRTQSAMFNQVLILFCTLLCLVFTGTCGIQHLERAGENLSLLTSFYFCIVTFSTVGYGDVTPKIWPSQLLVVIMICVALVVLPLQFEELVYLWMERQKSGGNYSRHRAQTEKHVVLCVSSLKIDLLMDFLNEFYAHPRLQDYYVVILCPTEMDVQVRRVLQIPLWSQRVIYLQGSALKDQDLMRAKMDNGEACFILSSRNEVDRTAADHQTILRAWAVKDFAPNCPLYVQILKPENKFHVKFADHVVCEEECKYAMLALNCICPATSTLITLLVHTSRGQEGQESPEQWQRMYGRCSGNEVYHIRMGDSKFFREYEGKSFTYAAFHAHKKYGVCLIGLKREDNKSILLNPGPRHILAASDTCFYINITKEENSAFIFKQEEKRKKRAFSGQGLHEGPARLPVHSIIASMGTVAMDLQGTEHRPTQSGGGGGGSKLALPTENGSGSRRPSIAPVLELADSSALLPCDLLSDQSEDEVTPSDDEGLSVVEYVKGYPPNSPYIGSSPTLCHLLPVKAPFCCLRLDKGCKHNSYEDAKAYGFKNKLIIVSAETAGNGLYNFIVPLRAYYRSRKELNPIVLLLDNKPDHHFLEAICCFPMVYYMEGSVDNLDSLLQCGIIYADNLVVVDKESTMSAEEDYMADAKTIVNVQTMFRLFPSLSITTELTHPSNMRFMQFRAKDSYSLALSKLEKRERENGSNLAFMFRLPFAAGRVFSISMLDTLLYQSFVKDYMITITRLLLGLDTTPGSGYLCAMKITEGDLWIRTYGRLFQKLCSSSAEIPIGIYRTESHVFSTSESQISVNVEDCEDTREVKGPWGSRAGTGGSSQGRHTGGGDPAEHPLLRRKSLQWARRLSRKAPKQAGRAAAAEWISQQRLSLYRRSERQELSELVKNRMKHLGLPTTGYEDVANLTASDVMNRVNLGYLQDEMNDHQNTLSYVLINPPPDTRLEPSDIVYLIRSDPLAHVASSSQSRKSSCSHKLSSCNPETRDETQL
UniProt Q12809, whole entry: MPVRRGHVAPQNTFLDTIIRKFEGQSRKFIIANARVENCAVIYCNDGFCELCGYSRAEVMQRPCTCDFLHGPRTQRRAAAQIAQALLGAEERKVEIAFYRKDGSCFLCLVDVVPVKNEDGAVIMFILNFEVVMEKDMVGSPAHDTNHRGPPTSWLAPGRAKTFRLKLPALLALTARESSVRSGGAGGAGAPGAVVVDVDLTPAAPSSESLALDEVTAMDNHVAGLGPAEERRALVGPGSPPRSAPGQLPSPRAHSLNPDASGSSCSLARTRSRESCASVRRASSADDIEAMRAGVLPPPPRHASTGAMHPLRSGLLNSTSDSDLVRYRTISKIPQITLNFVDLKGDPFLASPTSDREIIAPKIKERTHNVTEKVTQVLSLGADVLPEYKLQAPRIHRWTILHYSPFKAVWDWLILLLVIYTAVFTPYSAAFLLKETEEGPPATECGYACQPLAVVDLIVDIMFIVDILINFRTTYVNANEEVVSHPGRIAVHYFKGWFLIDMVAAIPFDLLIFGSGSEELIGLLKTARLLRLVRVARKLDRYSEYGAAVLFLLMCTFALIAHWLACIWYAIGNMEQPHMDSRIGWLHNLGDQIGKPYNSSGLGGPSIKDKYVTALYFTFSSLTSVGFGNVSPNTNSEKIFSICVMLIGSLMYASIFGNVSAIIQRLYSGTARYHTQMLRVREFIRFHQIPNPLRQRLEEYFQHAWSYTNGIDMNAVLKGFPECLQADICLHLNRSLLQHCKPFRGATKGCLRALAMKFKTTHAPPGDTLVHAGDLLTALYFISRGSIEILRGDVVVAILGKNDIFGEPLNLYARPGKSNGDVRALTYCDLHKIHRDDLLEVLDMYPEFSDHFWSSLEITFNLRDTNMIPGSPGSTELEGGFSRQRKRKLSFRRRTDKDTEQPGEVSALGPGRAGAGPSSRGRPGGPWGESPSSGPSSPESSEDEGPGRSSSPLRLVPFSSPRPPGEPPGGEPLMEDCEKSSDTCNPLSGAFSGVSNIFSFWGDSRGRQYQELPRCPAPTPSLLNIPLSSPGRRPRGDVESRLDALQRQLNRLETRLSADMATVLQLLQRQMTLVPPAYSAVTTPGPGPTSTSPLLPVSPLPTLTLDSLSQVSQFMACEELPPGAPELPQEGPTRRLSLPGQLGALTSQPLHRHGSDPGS

Tests used:
KNa1.1 WT/Y796H = KNa1.1 WT/Y796H (Homo sapiens, UniProt Q5JUK3, Y796H); experiment: thallium flux; format: cell-based; conditions: 1 h preincubation, 37 °C, 2.5 mM thallium sulphate, pH 7.3
hERG = hERG (Homo sapiens, UniProt Q12809); experiment: whole-cell patch clamp, HEK293, tail current; format: cell-based; conditions: room temperature, pH 7.3 outside

Structure (SMILES)	IC50 (KNa1.1 WT/Y796H)	% inhibition at 10 μM (hERG)
O=C(Nc1ccc(C(F)(F)F)cc1)N1CCC2(CC1)N[C@@H](Cc1ccccc1)C(=O)N2CC1CC1	11.9 µM	> 50%
CCCCCCOc1ccc(C(=O)Oc2ccc3c(=O)c(Oc4cc(C)cc(C)c4C)c(C(F)(F)F)oc3c2CN2CCOCC2)cc1	2.6 µM	–
CC(C)(C)c1ccc(O)c(NC(=O)CCc2ccc3c(c2)OCO3)c1	3.1 µM	> 50%
COC(=O)c1cccc(C#Cc2cccc(NC(=O)Cc3ccc(OC(F)F)cc3)c2)c1	5.9 µM	–
CC1CCN(C2=NC(=O)/C(=C/c3cn(-c4ccccc4)nc3-c3ccc(OCc4ccccc4F)cc3)S2)CC1	2.4 µM	> 50%
